Screening data: PubChem BioAssay, Broad Institute
E-sel inducer: E-selectin induction on HUVECs; HUVEC E-selectin immunofluorescence imaging; normalized: neutral wells 0, TNF-alpha wells 100; activation, % at 7.58 µM; hit rate 0.37% among 260,000;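 active means mean E-selectin-positive cell signal at least 10% of the positive control, reached in at least 60% of replicates, without over 20% cell loss; inconclusive means no rule given, readout overlaps actives, possibly toxicity-flagged; inactive means the rest, including those meeting only one limit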
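Material: HUVEC primary endothelial cells; Amount: 3,000 cells per well; Dosing: single concentration; Medium: EGM-2 growth medium on 0.1% gelatin-coated wells; Read-out basis: percent E-selectin-positive cells; Signal: immunofluorescence imaging; Control set: TNF-alpha, DMSO.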
UUG fidelity: yeast start codon fidelity modulation; activity score, % at 18.7 µM; actives 0.13% (n = 350,000); S. cerevisiae UUG-firefly luciferase reporter, luminescence/redox ratio; AID 602363;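 active means replicate mean at a twofold rise or more, about +100% in these data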;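 further: firefly luciferase made from a UUG start codon reports start codon fidelity; reporter light over untreated wells divided by growth signal over untreated wells; some hits fall short of that in this replicate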
SIRT5 block: inhibitors of human sirtuin-5 desuccinylase; hit rate 1.1% among 330,000; AID 652115; Q9NXA8; Purified SirT5, succinyl-peptide AMC, trypsin-coupled fluorescence; inhibition, % at 15 µM; in the data active means inhibition above about 15%; inconclusive means no clear call, values can overlap the other calls
MLL AF4-AF9 inh: blocks AF4 peptide binding to human AF9. P42568. AlphaScreen, biotin-AF4 peptide binding to FLAG-AF9. inhibition, % at 10 µM. hit rate 0.47% among 350,000. AID 651704;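 active means every replicate reaching a set inhibition limit, whatever the replicate mean, cut at about 25% in these data; inconclusive means mean inhibition reaches that limit but some replicates miss it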;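 further: 0% = plate neutral control median and 100% = total signal loss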
RAD54 branch: blocks human RAD54 Holliday junction branch migration | Q92698 | FAM/BHQ fluorescence | inhibition, % at 10.4 µM | hit rate 0.14% among 360,000;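 active means mean normalized replicate activity at least 40 and at least half of replicates scoring 40 or more; inconclusive means only one of the two criteria met; inactive means mean below 40 and under half of replicates reaching 40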;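 further: 0% = median of neutral control wells and 100% = median of positive control wells; inhibitors cause a drop in the FAM fluorescence signal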
RAD52 inh: blocks human RAD52 DNA annealing; AID 651710; hit rate 0.46% among 360,000; inhibition, % at 18.7 µM; P43351; recombinant RAD52 DNA annealing, FRET fluorescence;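 active means every replicate showing at least 50% inhibition; inconclusive means mean inhibition at least 50% but not in every replicate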
Numbers without * were called inactive; i = inactive; ? = inconclusive; . = no result given; ! = not active in a repeat. Hits are enriched below; roughly 1.8% of the tested compounds scored in any of these assays.

The opening four entries as a preview:
entry | mol | E-sel inducer | UUG fidelity | SIRT5 block
1 | Cc1noc(C)c1NC(=O)Nc1ccc2c(c1)C(=O)N([C@H](C)CO)C[C@@H](C)[C@H](CN(C)Cc1ccc(C(=O)O)cc1)OCCCC[C@@H](C)O2 | 0 | -3 | .
2 | Cc1ccc(/C=C2\C(=N)N3N=C(CC(=O)N4CCCCC4)SC3=NC2=O)cc1 | . | -13 | 3
3 | N=C1/C(=C/c2ccco2)C(=O)N=C2SC(CC(=O)N3CCCC3)=NN12 | 6 | -13 | 20*
4 | N=C1/C(=C/c2ccc(Br)o2)C(=O)N=C2SC(CC(=O)N3CCCC3)=NN12 | . | -5 | 26*

entry | MLL AF4-AF9 inh | RAD54 branch | RAD52 inh
1 | . | 10 | .
2 | -1 | -9 | -21
3 | -2 | -1 | -67
4 | -5 | -12 | -44

The list itself, repeating the preview:
entry | mol | E-sel inducer | UUG fidelity | SIRT5 block
1 | Cc1noc(C)c1NC(=O)Nc1ccc2c(c1)C(=O)N([C@H](C)CO)C[C@@H](C)[C@H](CN(C)Cc1ccc(C(=O)O)cc1)OCCCC[C@@H](C)O2 | 0 | -3 | .
2 | Cc1ccc(/C=C2\C(=N)N3N=C(CC(=O)N4CCCCC4)SC3=NC2=O)cc1 | . | -13 | 3
3 | N=C1/C(=C/c2ccco2)C(=O)N=C2SC(CC(=O)N3CCCC3)=NN12 | 6 | -13 | 20*
4 | N=C1/C(=C/c2ccc(Br)o2)C(=O)N=C2SC(CC(=O)N3CCCC3)=NN12 | . | -5 | 26*
5 | N=C1/C(=C\c2ccc(Br)o2)C(=O)N=C2SC(CC(=O)N3CCOCC3)=NN12 | . | -14 | 28*
6 | CCc1ccc(/C=C2\C(=N)N3N=C(CC(=O)N4CCCCC4)SC3=NC2=O)cc1 | . | -13 | 0
7 | O=C(C1CC1)N1CC2(C1)[C@H](c1ccccc1)[C@@H](CO)N2S(=O)(=O)c1ccccc1 | 0 | . | 3
8 | C[C@@H]1CN([C@H](C)CO)C(=O)c2cc(NC(=O)NC3CCCCC3)ccc2O[C@@H]1CN(C)Cc1ccc(Cl)c(Cl)c1 | 0 | -3 | 9

entry | MLL AF4-AF9 inh | RAD54 branch | RAD52 inh
1 | . | 10 | .
2 | -1 | -9 | -21
3 | -2 | -1 | -67
4 | -5 | -12 | -44
5 | -2 | -20 | -70
6 | -5 | -7 | -23
7 | -3 | . | -7
8 | -1 | 3 | 10

Going on with the list.
entry | mol | E-sel inducer | UUG fidelity | SIRT5 block
9 | Cc1cc(Br)ccc1SCC(=O)OC/C(O)=C(\C#N)c1nc2ccccc2[nH]1 | . | . | 21*
10 | Cc1cc(Br)ccc1SCC(=O)OCC(O)=C(C#N)c1nc2ccccc2[nH]1 | 0 | -3 | .
11 | CC(C)CC#Cc1ccc2c(c1)O[C@H](CN(C)C(=O)c1ccccc1)[C@H](C)CN([C@H](C)CO)S2(=O)=O | 0 | 1 | 15*
12 | CC(C)CC#Cc1ccc2c(c1)O[C@H](CN(C)C(=O)c1ccccc1)[C@@H](C)CN([C@@H](C)CO)S2(=O)=O | ? | -9 | 8
13 | CC(C)CC#Cc1ccc2c(c1)O[C@H](CN(C)C(=O)c1cccc(F)c1)[C@@H](C)CN([C@@H](C)CO)S2(=O)=O | -1 | -8 | 18*
14 | CC(C)CC#Cc1ccc2c(c1)O[C@@H](CN(C)C(=O)c1cccc(F)c1)[C@@H](C)CN([C@@H](C)CO)S2(=O)=O | -1 | 19 | 5
15 | CC(C)CC#Cc1ccc2c(c1)O[C@@H](CN(C)C(=O)c1cccc(F)c1)[C@H](C)CN([C@@H](C)CO)S2(=O)=O | -3 | 0 | 22*
16 | CC(C)CC#Cc1ccc2c(c1)O[C@H](CN(C)C(=O)c1cccc(F)c1)[C@@H](C)CN([C@H](C)CO)S2(=O)=O | -1 | -6 | 22*

entry | MLL AF4-AF9 inh | RAD54 branch | RAD52 inh
9 | -3 | . | -41
10 | 0 | -4 | -137
11 | 6 | 3 | -3
12 | 6 | 4 | 13
13 | 4 | -6 | 13
14 | 2 | -3 | 5
15 | 4 | -3 | 2
16 | 2 | -4 | 13

The results go on.
entry | mol | E-sel inducer | UUG fidelity | SIRT5 block
17 | CC(=O)N1[C@@H]2c3cccc(=O)n3C[C@H]1[C@H](CO)[C@H]2C(=O)N[C@H](C)c1ccccc1 | 0 | . | -4
18 | CCCN(C)C[C@H]1Oc2ncc(-c3ccncc3)cc2C(=O)N([C@@H](C)CO)C[C@@H]1C | 0 | -7 | -6
19 | Cc1ccc(S(=O)(=O)N(C)C[C@@H]2OCCCC[C@@H](C)Oc3ccc(NS(=O)(=O)c4c(C)noc4C)cc3C(=O)N([C@@H](C)CO)C[C@H]2C)cc1 | . | -21 | 5
20 | C[C@@H]1CN([C@@H](C)CO)S(=O)(=O)c2ccc(C#CC3CC3)cc2O[C@@H]1CN(C)C(=O)c1cccc(F)c1 | 0 | . | 23*
21 | CC(C)CC#Cc1ccc2c(c1)O[C@@H](CN(C)C(=O)c1cccc(F)c1)[C@H](C)CN([C@H](C)CO)S2(=O)=O | 1 | -7 | 16*
22 | Cc1noc(C)c1NC(=O)N(C)C[C@@H]1Oc2cc(C#CCC(C)C)ccc2S(=O)(=O)N([C@H](C)CO)C[C@H]1C | 0 | 12 | -1
23 | Cc1noc(C)c1NC(=O)N(C)C[C@H]1Oc2cc(C#CCC(C)C)ccc2S(=O)(=O)N([C@H](C)CO)C[C@@H]1C | 0 | 4 | 0
24 | C[C@H](CO)N1C[C@H](C)[C@@H](CN(C)C(=O)Nc2ccc3c(c2)OCO3)Oc2ccc(NC(=O)Cn3cnnn3)cc2CC1=O | 0 | 1 | -2

entry | MLL AF4-AF9 inh | RAD54 branch | RAD52 inh
17 | -3 | . | -7
18 | -10 | 0 | -3
19 | 2 | -3 | -42
20 | 1 | 0 | -4
21 | 6 | -1 | 22
22 | 30* | 0 | -8
23 | 6 | -4 | 9
24 | 0 | 5 | 1

(list continues)
entry | mol | E-sel inducer | UUG fidelity | SIRT5 block
25 | CCCC(=O)Nc1ccc2c(c1)C(=O)N(C)[C@@H]1CC[C@@H](CC(=O)NCC(F)(F)F)O[C@@H]1CO2 | 0 | -5 | .
26 | Cc1noc(C)c1S(=O)(=O)Nc1ccc2c(c1)C(=O)N([C@H](C)CO)C[C@H](C)[C@@H](CN(C)Cc1ccncc1)O2 | 5 | 7 | 0
27 | Nc1ccc(C(=O)O)c(O)c1 | 0 | 1 | 15*!
28 | O=C(O)c1ccc(O)cc1O | . | 1 | .
29 | O=C(CCCN1C(=O)/C(=C\c2cccs2)SC1=S)Nc1ccc(O)cc1C(=O)O | . | -1 | -3
30 | O=C(CCCN1C(=O)/C(=C\c2cccs2)SC1=S)Nc1cccc(C(=O)O)c1 | . | . | .
31 | O=C(CCCN1C(=O)/C(=C/c2ccco2)SC1=S)Nc1cccc(C(=O)O)c1 | . | . | 42*
32 | O=C(CCCN1C(=O)/C(=C\c2ccco2)SC1=S)Nc1ccc(O)cc1C(=O)O | . | -11 | 40*

entry | MLL AF4-AF9 inh | RAD54 branch | RAD52 inh
25 | . | -8 | .
26 | -2 | 6 | -14
27 | 9 | 4 | -7
28 | . | -3 | -14
29 | 2 | -2 | -45
30 | 1 | . | -11
31 | 0 | . | -264
32 | -4 | -10 | -351

Next results follow:
entry | mol | E-sel inducer | UUG fidelity | SIRT5 block
33 | Cc1c(C(=O)c2ccc(F)cc2F)c2ccccn2c1CCC#N | . | -20 | 2
34 | Cc1c(C(=O)c2ccc(N(C)C)cc2)c2ccccn2c1CCC#N | . | 3 | 112*
35 | CN1C(=O)c2cc(NC(=O)c3ccc(F)cc3)ccc2OC[C@H]2O[C@H](CC(=O)O)CC[C@H]21 | 0 | 4 | 3
36 | O=C(/C=C/c1ccccc1)c1cc(Br)ccc(=O)c1O | . | 4 | .
37 | O=C(/C=C/c1ccc(F)cc1)c1cc(Br)ccc1O | 0 | 2 | 16*
38 | C[C@@H]1CN([C@@H](C)CO)C(=O)c2cc(NS(=O)(=O)c3ccc(F)cc3)ccc2O[C@H]1CN(C)Cc1ccc2c(c1)OCO2 | 0 | 7 | -2
39 | Cc1ccc(S(=O)(=O)Nc2ccc3c(c2)CC(=O)N([C@H](C)CO)C[C@@H](C)[C@H](CN(C)Cc2ccc(C(=O)O)cc2)O3)cc1 | 0 | . | .
40 | CN1C2CCC1/C(=C/c1cccn1C)C(=O)/C2=C\c1cccn1C | . | 41 | 6
41 | O=C1CNC[C@@H]2[C@H](c3ccc(C4=CCCCC4)cc3)[C@H](CO)N12 | 0 | . | -1

entry | MLL AF4-AF9 inh | RAD54 branch | RAD52 inh
33 | 8 | -7 | -12
34 | 11 | -1 | -21
35 | -2 | -14 | -8
36 | . | -15 | .
37 | 4 | -3 | -17
38 | 0 | 6 | -6
39 | . | . | .
40 | 43* | i | i
41 | 2 | . | 5
